# Data reported in ChEMBL document CHEMBL1629485, “Lead identification of conformationally restricted β-lactam type combretastatin analogues: synthesis, antiproliferative activity and tubulin targeting effects” (Eur J Med Chem, 2010).
# Organism: Bos taurus
# Test: Inhibition of bovine tubulin polymerization at 10 uM measured every 30 seconds for 60 mins by spectrophotometry relative to control
row,Structure (SMILES),fold change (FC)
1,COc1ccc(/C=C\c2cc(OC)c(OC)c(OC)c2)cc1O [COMBRETASTATIN A4],6
2,COc1cc(OC)c(C2CC(=O)N2c2cc(OC)c(OC)c(OC)c2)cc1OC (stereo not drawn),1.2
3,COc1ccc(C2CC(=O)N2c2cc(OC)c(OC)c(OC)c2)cc1O (stereo not drawn),10.2
